The species named for the data set is Homo sapiens. Nature of the data set: Ratio of [(apical to basal)/(basal to apical)] (Caco-2 cell monolayer). In kind it is ADME.

In the case of `O=C(O)c1cn(C2CC2)c2cc(N3CCNCC3)c(F)cc2c1=O` [CIPROFLOXACIN], the Ratio turned out to be 0.44.
The same measure for `CN1C(=O)CN=C(c2ccccc2)c2cc(Cl)ccc21` [DIAZEPAM]: 1.7.

Values taken from ChEMBL document CHEMBL1134498, “Experimental and computational screening models for the prediction of intestinal drug absorption” (J Med Chem, 2001).
